Results published in patent publication US20220133733A1, “BICYCLIC PEPTIDE LIGANDS SPECIFIC FOR CD38” (BicycleRD Limited, priority 2019, published 2022).

Chains of the proteins cited; added tags and fusions are not shown.
UniProt P28907, whole entry: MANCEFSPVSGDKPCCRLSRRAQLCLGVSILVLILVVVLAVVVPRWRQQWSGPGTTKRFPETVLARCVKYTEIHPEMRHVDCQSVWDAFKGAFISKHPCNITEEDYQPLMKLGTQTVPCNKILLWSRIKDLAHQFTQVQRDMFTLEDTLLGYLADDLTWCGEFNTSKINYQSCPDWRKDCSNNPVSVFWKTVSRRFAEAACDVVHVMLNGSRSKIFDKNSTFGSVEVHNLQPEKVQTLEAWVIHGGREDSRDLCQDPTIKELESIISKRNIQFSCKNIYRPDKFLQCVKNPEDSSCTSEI

Target: human CD38 (Homo sapiens, UniProt P28907)
Test: CD38 competition binding assay (fluorescence polarisation)
Conditions: Table 1; peptide ligands, molecular scaffold TBMB
Protocol: 1. CD38 Competition Binding Assay
Affinity of the peptides of the invention for human CD38 (Ki) was determined using a fluorescence polarisation assay, using the method reported by Lea et al (Expert Opin Drug Discov. 2011 6(1): 17-3) and using the following fluorescently labelled peptides ACTPCADFPIWGCA-Sar6-K(Fl) ((SEQ ID NO: 93)-Sar6-K(Fl)) for TBMB derivatives where Fl is a fluorescein molecule.

**Q.** “Ac-(SEQ ID NO: 3)-A-Sar6-(PG) [66-03-00-N009]” was tested. Which Ki did it give?
**A.** The Ki was 60.5 ± 10.8 nM.
